Hits are enriched below; roughly 0.78% of the tested compounds scored in any of these assays.
PINK1 expr mod: PINK1 expression modulation; 410,000 tested, 0.2% active; Potency, µM (top dose mostly 76.6 µM), for inactives: at the highest dose activation (PINK1 increase), usual class: activators; AID 624263; PINK1 immunofluorescence, high-content cytometry, 24 h; active means well fitted activation curve with a large enough effect; inconclusive means small, poorly fitted or top-dose-only effect; cell line not stated here; further: potency means the concentration at half of the fitted maximal effect; % of control where 0% means no effect; nearly all actives have a fitted effect of over 65% in size
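Stable cell line treated 24 h with compounds at 5 concentrations (CCCP controls), then fixed and immunostained for PINK1 plus nuclear and cell stains; PINK1 immunofluorescence quantified by laser-scanning microplate cytometry.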
IL2 activator: activators of IL-2; IL-2 activation reporter assay, cell-based qHTS; stimulated with anti-CD3/CD4/CD28 beads; in transgenic mouse T cells; activation, % (series mostly up to about 46 µM); 360,000 tested, 0.065% active; AID 652025; in the data active means activation above about 50%; inconclusive means mostly about 30% to 49%; further: 0% is about no effect
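Unstimulated transgenic mouse T cells, 750 per well, received compound and, after 60 minutes, anti-CD3/anti-CD4 bead plus anti-CD28 stimulation. EGFP and DsRed were quantified after 18 hours.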
TCR act: T cell receptor activation; AID 504894; Potency, µM (highest dose often 9.22 µM), for inactives: at the top dose activation of IL-2 secretion, usual class: activators; primary human leukocytes, anti-CD3, IL-2 HTRF, 48 h; 330,000 tested, under 10 active; further: % of control where 0% means no effect
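HTRF read-out of IL-2 secretion: europium cryptate donor excited at 320nm, d2 acceptor emission at 665nm. Cells were primary human leukocytes incubated 48 hr with compounds and a-CD3 beads, supplying TCR signal only.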
RXFP1 antag: RXFP1 (human) relaxin receptor antagonism. HEK293-RXFP1, relaxin-stimulated cAMP HTRF, 30 min; stronger effect = lower value. AID 1259400. 350,000 tested, 0.59% active. activity change, negative = inhibition, % at 57.5 µM;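 active means activity change of -60% or lower, but not beyond a set lower limit; inconclusive means change between -60% and -40%, or beyond the set limit; inactive means change above -40%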; further: on the % scale 0 is the no-effect control and ±100 the full control effect
RXFP1 ag: activates the human relaxin receptor RXFP1; HEK293T-RXFP1 cAMP TR-FRET, 30 min; response scale: percent of porcine relaxin response, buffer zero; Q9HBX9; 370,000 tested, 0.3% active; Potency, µM (titrated, usually from 57.5 µM), for the others: at the highest dose activation, actives largely listed as activators; further: potency means the concentration at half of the fitted maximal effect; on the % scale 0 is the no-effect control and ±100 the full control effect; nearly all actives have a fitted effect of over 60% in size
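cAMP rise read by TR-FRET after 30 min, 37C compound exposure (up to 58 uM) in RXFP1-transfected HEK293 cells with Ro 20174 present. EC50 from Hill-equation fits, with 29 nM porcine relaxin as 100% and buffer as basal.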
miR-21 FLuc: miR-21 reporter, rising signal | AID 2288 | HeLa miR-21 FLuc reporter, luciferase, 48 h | 340,000 tested, under 10 active | Potency, µM (titrated, usually from 38.3 µM), for the others: at the top dose reporter change, positive = more light; active = well fitted rising curve with a large enough effect; inconclusive = small, poorly fitted or top-dose-only effect; inactive = no such curve, though single readings can be large or run the other way;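 also: % of control where 0% means no effect; miR-21 action dims this reporter so a rising signal means less miR-21 action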
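Using DMEM plus 10% FBS, HeLa miR-21-FLuc cells are incubated with test compounds (final up to about 40uM) for 48 hours; firefly luciferase signal is then imaged following reagent-mediated lysis.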
Numbers without * were called inactive; ? = inconclusive; . = no result given; [ ] = another dose, or the depositor's remark. Unless noted, the call rests on the fitted dose curve; in most records, active means well fitted curve in the direction sought with a large enough effect; inconclusive means small, poorly fitted or top-dose-only effect, or another doubt; inactive means no such curve, though single readings can be large; an effect the other way counts as inactive or inconclusive.

Screens in order – PINK1 expr mod	IL2 activator	TCR act	RXFP1 antag	RXFP1 ag	miR-21 FLuc
1: COc1ccc(OC)c(C(=O)N2CCOc3ccc(C(C)(O)CN(C)C)cc3C2)c1 (stereo not given)
→ 0%	.	.	.	.	.
2: O=S(=O)(NCc1nc(N2CCCC2)c2cc(Cl)ccc2n1)c1ccccc1OC(F)(F)F
→ 0%	.	.	.	.	.
3: Cc1ccc(C(=O)Nc2ccc(SC(F)F)cc2)s1
→ 3%	0	7%	-73*	0%	-29%
4: CC(C)CCCC(C)NCCC(C)C (stereo not given)
→ .	.	.	4	.	.
5: Cn1nccc1C(=O)NCc1ccc2c(c1)CCN2C(=O)c1ccc(F)cc1
→ 0%	.	.	-73*	3%	29%
6: Cc1ccc(NC(=S)NNc2ncc(C(F)(F)F)cc2Cl)cc1
→ 32µM*	-6	1%[46.1 µM]	12	2%	?
7: Cc1ccc(NC(=S)NNc2ncc(C(F)(F)F)cc2Cl)c(C)c1
→ 7%	0	-8%	20	3%	9%
8: FC(F)(F)c1cnc(NNC(=S)Nc2ccc(Cl)cc2)c(Cl)c1
→ 11µM*	-3	-1%[46.1 µM]	-37	0%	?
9: Fc1ccc(NC(=S)NNc2ncc(C(F)(F)F)cc2Cl)c(F)c1
→ 10µM*	-3	-3%	-25	1%	?
10: O=C(NCCc1ccccn1)C1CC12CCN(C(=O)c1ccccc1Cl)CC2 (stereo not given)
→ 0%	.	.	.	.	.
11: COc1cccc(C2(CC(=O)N3CCN(c4ccccc4O)CC3)CC(=O)N(C3CCCC3)C2=O)c1 (stereo not given)
→ 0%	.	.	.	.	.
12: CC(C)CN(C(=O)COC(=O)c1ccc([N+](=O)[O-])s1)c1c(N)n(Cc2ccccc2)c(=O)[nH]c1=O
→ 40µM*	-1	2%	-6	1%	.
13: Cc1cnc(C)c(-c2cc(F)cc3c2OC(CNC(=O)Cc2c(C)noc2C)C3)n1 (stereo not given)
→ 0%	.	.	.	.	.
14: CSc1nnc(CCNC(=O)c2ccccc2C(F)(F)F)n1-c1ccc(F)cc1
→ 0%	.	.	.	.	.
15: Cn1c([N+](=O)[O-])cnc1N1CCN(c2nncs2)C1=O
→ 4%	1	4%	13	16µM*	1%
16: Cc1ccc2c(c1)c1c(n2CC(O)CN2CCCCC2C)CCCC1 (stereo not given)
→ 2%	-2	-2%	-92*	-4%	-18%
17: COC(=O)c1cccc(C(=O)N2CCc3c(cnc(C)c3CNC(=O)c3ccsc3)C2)c1
→ -1%	.	.	.	.	.
18: COc1ccc2nc(SCc3ncc(C)c(OC)c3C)[nH]c2c1
→ .	.	.	-3	.	.
19: COc1ccc(/C=C/c2nc(-c3ccccc3O)n[nH]2)cc1OC
→ 21%	0	4%[46.1 µM]	-100*	-1%	-74%
20: Cc1c(C(=O)N2CC3CCC2C3)sc2ncnc(NCCc3c[nH]c4ccccc34)c12 (stereo not given)
→ 0%	.	.	.	.	.
21: O=[N+]([O-])c1ccc(O)c(C=Nc2cccc3ccccc23)c1
→ 0%	-3	0%	-96*	1%	-2%
22: O=C(N/N=C/c1cc([N+](=O)[O-])ccc1O)c1c[nH]c2ccccc12
→ 35µM*	0	-2%	-23	2%	27%
23: O=[N+]([O-])c1ccc(O)c(/C=N/NC(=S)Nc2ccc(Cl)cc2Cl)c1
→ 40µM*	-3	5%	0	0%	0%
24: O=C(N/N=C/c1cccc([N+](=O)[O-])c1)c1c[nH]c2ccccc12
→ 2%	-3	4%	14	4%	-40%
25: CCC1CN(CCC(=O)N2CCN(c3ncccn3)CC2)Cc2cc(OC)ccc2O1 (stereo not given)
→ 0%	.	.	.	.	.
26: OCc1ccccc1O
→ .	.	.	-12	.	.
27: OCc1ccccc1SSc1ccccc1CO
→ -1%	-2	-1%	-65*	.	.
28: Cc1c(C(=O)N(C)C2CCOC2)cnn1-c1ncc2c(n1)-c1ccccc1CCC2 (stereo not given)
→ 1%	.	.	.	.	.
29: Cc1nn(-c2ccccc2)c(N2CCCC2)c1/C=N/NC(=O)c1cc2ccccc2cc1O
→ 16µM*	0	-6%[46.1 µM]	13	-2%	-3%
30: Cc1ccc(F)cc1NC(=O)c1sc2ncn(CC(=O)N3CCN(c4ccccn4)CC3)c(=O)c2c1C
→ 0%	1	-7%	12	16µM*	0%
31: COc1ccccc1NC(=O)Cn1cnc2sc(C(=O)Nc3ccc(OC)c(OC)c3)c(C)c2c1=O
→ 10%	0	5%	-71*	3%	0%
32: Cc1cccc(CNC(=O)c2cnn(-c3nccc(-c4cc(C)sc4C)n3)c2C)n1
→ 7%	.	.	.	.	.
33: Fc1ccc(N2CCN(Cc3ccc4c(c3)CN(Cc3cccn3-c3cccnc3)CCO4)CC2)cc1
→ 0%	.	.	.	.	.
34: CCOC(=O)c1c(C)c(C(=O)Nc2ccc(N(C)C)cc2)c(C)n1CC
→ 11µM*	1	.	9	0%	-1%
35: CC1C(c2ccccc2)N(C)C(c2ccccc2)C(C)C1(O)C#Cc1ccccc1 (stereo not given)
→ 32µM*	-1	3%[46.1 µM]	-12	-2%	6%
36: Cc1cc(C)c2c(N)c(C(=O)N/N=C/c3cccs3)sc2n1
→ 25µM*	29	-1%	-21	0%	-77%
37: COc1ccc(/C=N/NC(=O)c2sc3nc(C)cc(C)c3c2N)cc1
→ 13%	-1	0%	-25	-1%	-4%
38: C[n+]1c2cc(N)ccc2cc2ccc(N)cc21 (tested in a mixture with another compound)
→ .	.	.	-9	.	.
39: Fc1ccc2c(c1)Sc1ccc(Cl)cc1CC2N1CCN(CCC2OCCO2)CC1 (stereo not given)
→ 0%	-1	-4%	-62*	.	.
40: CCc1sc(C(=O)Nc2nc(-c3ccccn3)cs2)cc1C
→ -3%	0	3%	-69*	.	.

6 structures out of the list, arranged by SMILES length, high to low:
Screens in order – PINK1 expr mod	IL2 activator	TCR act	RXFP1 antag	RXFP1 ag	miR-21 FLuc
33: Fc1ccc(N2CCN(Cc3ccc4c(c3)CN(Cc3cccn3-c3cccnc3)CCO4)CC2)cc1
→ 0%	.	.	.	.	.
23: O=[N+]([O-])c1ccc(O)c(/C=N/NC(=S)Nc2ccc(Cl)cc2Cl)c1
→ 40µM*	-3	5%	0	0%	0%
35: CC1C(c2ccccc2)N(C)C(c2ccccc2)C(C)C1(O)C#Cc1ccccc1 (stereo not given)
→ 32µM*	-1	3%[46.1 µM]	-12	-2%	6%
21: O=[N+]([O-])c1ccc(O)c(C=Nc2cccc3ccccc23)c1
→ 0%	-3	0%	-96*	1%	-2%
38: C[n+]1c2cc(N)ccc2cc2ccc(N)cc21 (tested in a mixture with another compound)
→ .	.	.	-9	.	.
27: OCc1ccccc1SSc1ccccc1CO
→ -1%	-2	-1%	-65*	.	.

New compounds follow:
Screens in order – PINK1 expr mod	IL2 activator	TCR act	RXFP1 antag	RXFP1 ag	miR-21 FLuc
41: O=C(NCC1CN(c2ccc(N3CCOCC3=O)cc2)C(=O)O1)c1ccc(Cl)s1 (stereo not given)
→ .	.	.	10	.	.
42: COc1cccc(/C=N/Nc2ncnc(Cl)c2N)c1O
→ ?	0	-4%[46.1 µM]	-39	3%	15%
43: COc1cccc(/C=N/Nc2nccnc2Cl)c1O
→ -2%	0	-2%	-70*	0%	0%
44: Cc1cn([C@@H]2O[C@H](CO)[C@@H](O)[C@H]2F)c(=O)[nH]c1=O
→ .	.	.	-9	.	.
45: CN1CCc2c(sc(NC(=O)CSc3ccc(F)cc3)c2-c2nc3ccccc3s2)C1
→ ?	.	.	-96*	-30%	-3%
46: N#CC(c1ccccc1)c1ccc2c(C(F)(F)F)cc(C(F)(F)F)nc2n1 (stereo not given)
→ ?	-1	1%	-7	-1%	?

Screens from PubChem BioAssay.
